Measurements as given in ChEMBL document CHEMBL1145539, “Activity of daptomycin alone and in combination with rifampin and gentamicin against Staphylococcus aureus assessed by time-kill methodology” (2007).

System: Staphylococcus aureus

Sequence: GENTAMICIN
- MIC: 0.5 µg/mL
